According to PubChem BioAssay AID2073 (Sanford-Burnham Center for Chemical Genomics, 2009):
Only a part is listed here, and it is no random draw. Results with a measured potency or affinity are listed apart. Activity calls are given as the source filed them. Rule as the data show it: active = inhibition mostly above about 51% (no sharp cut-off); inconclusive = no clear call, values can overlap the other calls; inactive = mostly below about 53%.

Chains of the proteins cited; added tags and fusions are not shown.
UniProt Q00975, whole entry: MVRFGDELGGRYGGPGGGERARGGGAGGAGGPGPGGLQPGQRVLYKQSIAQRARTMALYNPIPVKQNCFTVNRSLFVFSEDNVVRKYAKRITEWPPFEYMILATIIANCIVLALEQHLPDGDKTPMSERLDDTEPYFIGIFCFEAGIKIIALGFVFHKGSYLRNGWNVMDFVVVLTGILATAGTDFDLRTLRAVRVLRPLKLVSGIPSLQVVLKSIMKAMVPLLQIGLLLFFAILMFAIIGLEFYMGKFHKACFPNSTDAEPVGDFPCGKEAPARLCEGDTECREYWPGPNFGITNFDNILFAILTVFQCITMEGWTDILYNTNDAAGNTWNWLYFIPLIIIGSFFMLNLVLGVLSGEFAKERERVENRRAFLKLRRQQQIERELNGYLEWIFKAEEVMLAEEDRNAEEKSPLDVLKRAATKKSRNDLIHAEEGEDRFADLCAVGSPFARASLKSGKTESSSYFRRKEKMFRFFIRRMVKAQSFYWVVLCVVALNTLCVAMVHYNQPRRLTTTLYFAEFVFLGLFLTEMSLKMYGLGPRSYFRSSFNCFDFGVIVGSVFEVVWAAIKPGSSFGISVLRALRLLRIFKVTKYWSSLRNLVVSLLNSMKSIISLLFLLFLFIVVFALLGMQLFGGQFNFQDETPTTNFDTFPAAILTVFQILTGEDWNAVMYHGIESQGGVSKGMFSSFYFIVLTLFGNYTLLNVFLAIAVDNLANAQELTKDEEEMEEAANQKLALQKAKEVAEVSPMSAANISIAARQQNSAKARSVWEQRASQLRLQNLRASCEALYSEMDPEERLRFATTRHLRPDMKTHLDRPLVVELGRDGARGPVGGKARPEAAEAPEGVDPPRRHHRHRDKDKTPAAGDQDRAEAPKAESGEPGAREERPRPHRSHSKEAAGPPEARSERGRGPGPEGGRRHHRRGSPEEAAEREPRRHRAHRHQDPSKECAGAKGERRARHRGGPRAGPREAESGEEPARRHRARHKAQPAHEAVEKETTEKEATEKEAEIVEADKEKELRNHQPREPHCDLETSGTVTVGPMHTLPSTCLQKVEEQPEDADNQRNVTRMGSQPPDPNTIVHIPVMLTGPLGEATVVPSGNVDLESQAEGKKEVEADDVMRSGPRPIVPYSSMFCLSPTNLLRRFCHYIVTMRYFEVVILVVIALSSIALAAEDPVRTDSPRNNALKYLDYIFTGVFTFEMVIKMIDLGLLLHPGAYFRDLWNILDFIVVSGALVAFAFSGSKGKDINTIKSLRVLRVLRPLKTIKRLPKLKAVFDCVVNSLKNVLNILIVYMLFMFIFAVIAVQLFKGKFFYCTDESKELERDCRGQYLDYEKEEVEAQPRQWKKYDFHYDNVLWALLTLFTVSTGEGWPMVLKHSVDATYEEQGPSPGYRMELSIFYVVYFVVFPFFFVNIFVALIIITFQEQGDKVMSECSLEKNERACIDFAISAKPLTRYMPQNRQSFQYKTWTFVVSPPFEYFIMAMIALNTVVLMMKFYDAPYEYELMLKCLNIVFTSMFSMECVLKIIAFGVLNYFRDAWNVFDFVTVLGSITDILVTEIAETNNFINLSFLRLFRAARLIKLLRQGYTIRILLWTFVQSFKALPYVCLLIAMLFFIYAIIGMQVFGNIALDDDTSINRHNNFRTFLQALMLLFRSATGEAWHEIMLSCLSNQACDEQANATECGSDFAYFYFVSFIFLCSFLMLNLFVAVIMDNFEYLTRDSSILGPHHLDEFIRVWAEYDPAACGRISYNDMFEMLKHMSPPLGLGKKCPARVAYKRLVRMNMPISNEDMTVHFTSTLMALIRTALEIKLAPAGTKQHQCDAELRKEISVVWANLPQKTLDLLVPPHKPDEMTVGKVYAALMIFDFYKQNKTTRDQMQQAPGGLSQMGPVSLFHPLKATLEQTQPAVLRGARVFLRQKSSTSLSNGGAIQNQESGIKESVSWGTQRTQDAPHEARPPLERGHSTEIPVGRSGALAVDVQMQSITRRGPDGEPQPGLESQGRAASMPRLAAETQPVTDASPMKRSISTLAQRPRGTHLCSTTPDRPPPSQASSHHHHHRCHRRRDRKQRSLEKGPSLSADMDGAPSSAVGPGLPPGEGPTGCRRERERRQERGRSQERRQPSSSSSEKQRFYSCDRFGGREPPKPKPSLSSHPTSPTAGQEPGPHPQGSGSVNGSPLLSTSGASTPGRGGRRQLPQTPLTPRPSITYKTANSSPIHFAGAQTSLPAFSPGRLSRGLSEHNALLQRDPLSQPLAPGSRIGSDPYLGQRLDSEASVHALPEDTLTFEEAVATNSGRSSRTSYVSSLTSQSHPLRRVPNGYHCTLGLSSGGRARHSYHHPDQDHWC

Molecular target: Voltage-dependent N-type calcium channel subunit alpha-1B (Homo sapiens) (UniProt Q00975)
Test: disruptors of CaV2.2 binding to Mint1 – biochemical, HTRF (AID 2073)
Settings: HTRF protein-protein interaction, Mint1-CaV2.2; at 20 µM; active compounds read high

Structure (SMILES)	inhibition
COc1ccc(C(=O)NCC2(N3CCOCC3)CCCCC2)cc1OC	inactive: 1.1%
CCOC(=O)N1CCC(Nc2ccc(C)cc2)CC1	inactive: 3.5%
N/C(=N\O)c1c(N)no[n+]1[O-]	inactive: -2.7%
O=C(OC1CN2CCC1CC2)C1c2ccccc2C=Cc2ccccc21 (centres undefined)	inactive: 4.2%
N#Cc1ccc(C(=O)NCC2(N3CCCCC3)CCCCC2)cc1	inactive: -5.3%
CC(C)(C)OC(=O)N1CCC(N(C(=O)c2ccccc2)c2ccc(Cl)cc2)CC1	inactive: 0.8%
CN(C)C1(CNC(=O)c2cccc(C#N)c2)CCCCC1	inactive: 14.2%
c1ccc(CN2CCC(Nc3ccccc3)CC2)cc1	inactive: -10.1%
CCCN1CCC(Nc2cc(OC)cc(OC)c2)CC1	inactive: -7.3%
COc1cc(OC)cc(C(=O)NCC2(N3CCCCC3)CCCCC2)c1	inactive: 9.7%
Fc1ccccc1NC1CCN(Cc2ccccc2)CC1	inactive: -2.4%
CCN1CCC(Nc2cccc(F)c2)CC1	inactive: -2.6%
CN(C)c1ccc(C(=O)NCC2(N3CCCCC3)CCCCC2)cc1	inactive: -0.2%
CCOc1ncccc1C(=O)NCC1(N2CCOCC2)CCCCC1	inactive: 1.7%
CN1CCC(Nc2ccc(F)c(Cl)c2)CC1	inactive: -4.3%
CC(C)(C)OC(=O)N1CCC(Nc2ccccc2)CC1	inactive: -5.9%
O=C(O)C1(Nc2ccccc2)CCN(Cc2ccccc2)CC1	inactive: 7.7%
CCCOc1ccc(C(=O)NCC2(N(C)C)CCCCC2)cc1	inactive: 3.5%
COc1cc(OC)cc(C(=O)NCC2(N3CCOCC3)CCCCC2)c1	inactive: 17.2%
COc1cccc(C(=O)N(c2cc(C)cc(C)c2)C2CCN(C(=O)OC(C)(C)C)CC2)c1	inactive: 12%
CCC(CO)(C(=O)OC1CN2CCC1CC2)c1ccccc1 (centres undefined)	inactive: -7.3%
CN1CCC(Nc2ccc(Cl)cc2)CC1	inactive: 2%
CCCOc1ccc(C)cc1CN(CCCl)CCCl	inactive: -4.9%
COc1ccc(C(=O)NCC2(N3CCCCC3)CCCCC2)cc1	inactive: 25.9%
CC(C)(C)OC(=O)N1CCC(N(C(=O)c2ccccc2)c2ccc(F)cc2)CC1	inactive: 2%
COc1ccc(C(=O)NCC2(N3CCCCC3)CCCCC2)c(OC)c1OC	inactive: -2%
O=C(NCC1(N2CCCCC2)CCCCC1)c1ccc(=O)[nH]c1	inactive: -5.3%

Structure (SMILES)	inhibition
CSc1ccccc1C(=O)NCC1(N2CCCCC2)CCCCC1	inactive: 9.6%
Cc1cc(C)cc(N(C(=O)c2ccccc2)C2CCN(C(=O)OC(C)(C)C)CC2)c1	inactive: 12.4%
O=C(NCC1(N2CCOCC2)CCCCC1)c1cc2ccccc2o1	inactive: 7.5%
N#CC1(Nc2ccccc2)CCN(Cc2ccccc2)CC1	inactive: 10%
O=C(OC1CN2CCC1CC2)C1c2ccccc2Oc2ccccc21 (centres undefined)	inactive: -11.9%
CCOC(=O)N1CCC(Nc2ccc(OC)cc2)CC1	inactive: -3.4%
CCOc1ccc(C)cc1CN(CCCl)CCCl	inactive: 12.9%
O=C(NCC1(N2CCCCC2)CCCCC1)c1ccc(F)cc1	inactive: 0.4%
COc1ccc(NC2CCN(CCc3ccccc3)CC2)c(OC)c1	inactive: -54.6%
CCOC(=O)N1CCC(Nc2ccc(F)cc2)CC1	inactive: 9.7%
CCOC(=O)N1CCC(Nc2cccc(C)c2)CC1	inactive: 1.8%
COc1cc(C(=O)NCC2(N(C)C)CCCCC2)ccc1OC(F)F	inactive: -0.6%
Cc1ccc(OCC(C)C)c(CN(CCCl)CCCl)c1	inactive: 5.1%
O=C(NCC1(N2CCCCC2)CCCCC1)c1ccc(OC(F)F)cc1	inactive: -0.4%
CCN1CCC(Nc2ccc(Cl)cc2)CC1	inactive: 14.1%
N#CC1(Nc2ccccc2)CCN(CCc2ccccc2)CC1	inactive: -14.7%
O=C(NCC1(N2CCCCC2)CCCCC1)c1cccc([N+](=O)[O-])c1	inactive: -4.9%
O=C(NCC1(N2CCCCC2)CCCCC1)c1cccc(C(F)(F)F)c1	inactive: 6.1%
COc1cc(C(=O)NCC2(N3CCCCC3)CCCCC2)ccc1OC(F)F	inactive: -5.9%
O=C(NCC1(N2CCOCC2)CCCCC1)c1cc(=O)[nH]c2ccccc12	inactive: 3.3%
CN1CCN(CCOC(=O)C(O)(c2ccccc2)c2ccccc2)CC1	inactive: 0%
COc1ccc(NC2CCN(C(=O)OC(C)(C)C)CC2)cc1	inactive: -40%
CC(C)c1ccc(NC2CCN(C(=O)OC(C)(C)C)CC2)cc1	inactive: -12.9%
COc1ccc(CN(CCCl)CCCl)cc1Cl	inactive: -9.8%
CN(C)c1cccc(C(=O)NCC2(N3CCCCC3)CCCCC2)c1	inactive: 4.8%
COc1cc(OC)c(C(=O)NCC2(N(C)C)CCCCC2)cc1OC	inactive: 4.8%
CCCOc1ccc(C(=O)NCC2(N(C)C)CCCCC2)cc1OC	inactive: 19.6%
